Data on 1 compound can be found in article PMC6664820, “Novel natural and synthetic inhibitors of solute carriers SGLT1 and SGLT2” (Pharmacology Research & Perspectives, 2019).

The data set deals with CHO‐hSGLT1/2 cells. The data set can be described thus: Cytotoxicity assay (ToxiLight, adenylate kinase leakage into CHO‐SGLT1/2 inhibition assay media).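 Further: bioluminescent read-out of adenylate kinase released from lysed cells into the medium, given relative to DMSO vehicle control defined as 0%, higher meaning more cytolysis.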 The arrangement: dose or concentration left out as unconfirmed.

As to `O=C(CCc1ccc(O)cc1)c1c(O)cc(O)cc1O[C@@H]1O[C@H](CO)[C@@H](O)[C@H](O)[C@H]1O` [Phloridzin, phloridzin, reference compound], the “CY[…] (% of vehicle control) Mean” value is on record as 2.7 % of vehicle control.
